Drawing on ChEMBL document CHEMBL5247574, “Recent Progress on Bile Acid Receptor Modulators for Treatment of Metabolic Diseases” (J Med Chem, 2016), this text covers K for 1 compound.

The target in this assay is T1, Bile acid receptor (Homo sapiens) (UniProt Q96RI1).
T1 sequence (whole entry): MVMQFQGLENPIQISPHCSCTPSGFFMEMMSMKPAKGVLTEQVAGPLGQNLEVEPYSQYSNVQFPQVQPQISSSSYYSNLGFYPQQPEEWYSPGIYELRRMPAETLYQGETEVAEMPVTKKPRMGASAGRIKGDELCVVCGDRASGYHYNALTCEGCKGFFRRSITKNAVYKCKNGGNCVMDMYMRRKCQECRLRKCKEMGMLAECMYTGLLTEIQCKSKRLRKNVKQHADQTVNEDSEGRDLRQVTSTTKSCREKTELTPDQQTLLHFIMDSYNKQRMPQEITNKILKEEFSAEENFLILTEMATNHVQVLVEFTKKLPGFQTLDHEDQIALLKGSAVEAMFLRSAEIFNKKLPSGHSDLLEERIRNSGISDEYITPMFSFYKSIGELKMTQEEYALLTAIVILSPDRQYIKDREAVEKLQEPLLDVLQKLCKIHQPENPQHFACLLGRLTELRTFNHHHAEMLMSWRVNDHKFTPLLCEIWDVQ
In words: Binding affinity to FXR (unknown origin). To be noted: filed as agonist.

`O=C(NC1CCCCC1)C(C1CCCCC1)n1c(-c2ccc(Cl)cc2)nc2ccccc21` (stereo unspecified): the K was 70 nM.
